Results reported in patent US20240166598A1, “COMPOUNDS, COMPOSITIONS, AND METHODS OF USING THE SAME” (priority 2021, published 2024).

test system: SARS-CoV-2 USA/WA1/2020; experiment: not given; format: cell-based; conditions: not given

Row | SMILES | effect of treatment on viral RNA versus vehicle control
1 | Cc1ccc(NC2CNC2)cc1C(=O)N[C@H](C)c1cccc(-c2ccc(CNC3CCCC3)s2)c1 [XR8-23] | significantly different from vehicle control

molecular target: T1, SARS CoV-2 PLpro (Severe acute respiratory syndrome coronavirus 2 (2019-nCoV) (SARS-CoV-2), UniProt P0DTD1); experiment: biochemical; conditions: Enzymatic assay IC50

Row | SMILES | IC50 [µM]
2 | Cc1ccc(NC2CNC2)cc1C(=O)N[C@H](C)c1cccc(-c2ccc(Cl)s2)c1 | 1.51
3 | Cc1ccc(N)cc1C(=O)N[C@H](C)c1cccc(-c2ccc(CN3CCCC3)s2)c1 | 1.69
4 | Cc1ccc(NC2CNC2)cc1C(=O)N[C@H](C)c1cccc(-c2cc(C)c(CN3CCCC3)s2)c1 | 0.918
5 | Cc1ccc(N)cc1C(=O)N[C@H](C)c1cccc(-c2ccc(CNC3CCCC3)s2)c1 | 1.39
6 | CC(=O)Nc1ccc(C)c(C(=O)N[C@H](C)c2cccc(-c3ccc(CN4CCCC4)s3)c2)c1 | 2.42
7 | Cc1ccc(NC2CNC2)cc1C(=O)N[C@H](C)c1cccc(-c2ccc(-c3cccs3)s2)c1 | 4.43
8 | Cc1ccc(NC2CNC2)cc1C(=O)N[C@H](C)c1cccc(-c2ncc(CNC3CCCC3)s2)c1 | 1.56
9 | Cc1ccc(NC2CNC2)cc1C(=O)N[C@H](C)c1cccc(-c2ccc(C#N)s2)c1 | 5.53
10 | Cc1ccc(NC2CNC2)cc1C(=O)N[C@H](C)c1cccc(-c2ccc(C(F)(F)F)s2)c1 | 6.12
11 | Cc1ccc(NC2CNC2)cc1C(=O)N[C@H](C)c1cccc(-c2ccc(-c3ccccc3)s2)c1 | 4.76
12 | Cc1ccc(NC2CNC2)cc1C(=O)N[C@H](C)c1cccc(-c2cc3sccc3s2)c1 | 0.824
13 | Cc1ccc(NC2CNC2)cc1C(=O)N[C@H](C)c1cccc(-c2ccc(CN[C@H]3CC[C@@H](C(=O)OC[C@H]4O[C@@H](n5ccc(NO)nc5=O)[C@H](O)[C@@H]4O)C3)s2)c1 | 0.627
14 | Cc1ccc(NC2CNC2)cc1C(=O)N[C@H](C)c1cccc(-c2cc3ccccc3s2)c1 | 1.13
15 | CC(=O)Nc1ccc(C)c(C(=O)N[C@H](C)c2cccc(-c3ccc(CNC4CCCC4)s3)c2)c1 | 1.79
16 | Cc1ccc(N)cc1C(=O)N[C@H](C)c1cccc(-c2ccc(CN[C@H]3CC[C@@H](O)C3)s2)c1 [drawing 513] | 0.597
17 | Cc1csc(-c2cccc([C@@H](C)NC(=O)c3cc(NC4CNC4)ccc3C)c2)c1 | 1.93
18 | Cc1ccc(NC2CNC2)cc1C(=O)N[C@H](C)c1cccc(-c2cc(C)c(CNC3CCCC3)s2)c1 | 0.652

molecular target: T1, SARS CoV-2 PLpro; experiment: biochemical; conditions: SPR binding assay KD

Row | SMILES | Kd [µM]
19 | Cc1ccc(NC2CNC2)cc1C(=O)N[C@H](C)c1cccc(-c2ccc(CNC3CCCC3)s2)c1 [Example 71, (R)-5-(azetidin-3-ylamino)-N-(1-(3-(5-((cyclopentylamino)methyl)thiophen-2-yl)phenyl)ethyl)-2-methylbenzamide] | 0.11
